{"source": "patent US8394950B2", "about": "“Analogues of coformycin and their use for treating protozoan parasite infections” (Industrial Research Limited, priority 2006, dated 2013)", "type_in_all_cases": "biochemical", "key": {"[1]": {"target": "T1, PfADA (Plasmodium falciparum, UniProt Q8IJA9)", "T1 sequence (Q8IJA9 1-367)": "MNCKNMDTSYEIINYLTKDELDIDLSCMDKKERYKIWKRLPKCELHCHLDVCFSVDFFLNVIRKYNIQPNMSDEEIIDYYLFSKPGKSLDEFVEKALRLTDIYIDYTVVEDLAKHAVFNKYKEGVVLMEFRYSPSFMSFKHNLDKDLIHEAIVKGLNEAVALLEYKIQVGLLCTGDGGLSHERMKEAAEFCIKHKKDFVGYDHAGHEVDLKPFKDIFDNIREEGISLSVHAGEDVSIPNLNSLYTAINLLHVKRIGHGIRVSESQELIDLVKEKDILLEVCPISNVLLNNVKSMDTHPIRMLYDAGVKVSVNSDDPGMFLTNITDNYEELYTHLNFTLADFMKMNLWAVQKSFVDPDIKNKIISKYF"}, "[2]": {"target": "T2, BtADA (Bos taurus, UniProt P56658)", "T2 construct": "bovine adenosine deaminase from bovine spleen; purchased Sigma-Aldrich Chemical Company; host or cells: bovine spleen", "T2 sequence (P56658 1-363)": "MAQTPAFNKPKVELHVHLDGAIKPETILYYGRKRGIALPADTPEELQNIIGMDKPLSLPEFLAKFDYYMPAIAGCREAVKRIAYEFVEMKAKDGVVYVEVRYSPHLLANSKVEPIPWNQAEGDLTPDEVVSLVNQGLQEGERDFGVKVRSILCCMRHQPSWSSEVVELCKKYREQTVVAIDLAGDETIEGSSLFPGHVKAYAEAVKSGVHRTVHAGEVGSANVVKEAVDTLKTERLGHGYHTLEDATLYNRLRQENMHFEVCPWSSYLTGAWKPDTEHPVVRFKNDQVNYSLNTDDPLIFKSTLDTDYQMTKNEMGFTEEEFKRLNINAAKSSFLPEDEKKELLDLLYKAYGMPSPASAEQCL", "experiment": "Inhibition of bovine adenosine deaminase (adenosine to inosine, absorbance change)"}, "[3]": {"target": "T3, HsADA (Homo sapiens, UniProt P00813)", "T3 construct": "Human adenosine deaminase from human erythrocytes; purchased Sigma-Aldrich Chemical Company; host or cells: human erythrocytes", "T3 sequence (P00813 1-363)": "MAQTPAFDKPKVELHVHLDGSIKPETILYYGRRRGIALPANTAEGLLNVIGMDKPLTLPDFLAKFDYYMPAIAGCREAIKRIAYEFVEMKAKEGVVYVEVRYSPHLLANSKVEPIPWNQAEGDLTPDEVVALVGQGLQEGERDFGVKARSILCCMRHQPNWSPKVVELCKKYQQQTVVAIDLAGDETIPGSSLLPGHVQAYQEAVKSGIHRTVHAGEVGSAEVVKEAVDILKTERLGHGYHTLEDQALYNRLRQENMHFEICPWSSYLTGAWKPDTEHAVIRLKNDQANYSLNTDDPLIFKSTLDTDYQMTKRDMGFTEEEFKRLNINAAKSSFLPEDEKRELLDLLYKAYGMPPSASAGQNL", "experiment": "Inhibition of human adenosine deaminase (adenosine to inosine, absorbance change)"}, "[4]": {"conditions": "initial dissociation constant, 100 μM adenosine, pH 7.0, 30° C., >10,000 = no inhibition at 10 μM"}}, "note": "Where two headings read alike, the source gives them in different places.", "data": [{"substance": "(8R)-8-hydroxy-3-(5-methylthio-β-D-ribofuranosyl)-3,6,7,8-tetrahydroimidazo[4,5-d][1,3]diazepine [5′-MeS-Coformycin (8)]", "values": [{"measurement": "specificity for PfADA relative to HsADA", "setting": "[1]; PfADA relative to HsADA", "value": "> 20,000 fold"}, {"measurement": "Ki", "setting": "[1]; initial dissociation constant, 100 μM adenosine, pH 7.0, 30° C., read-out: PfADA Ki", "value": "2.66 ± 0.13", "unit": "nM"}, {"measurement": "inhibition of PfADA (in words)", "setting": "[1]; listed as 5′-Methylthiocoformycin", "value": "potent, slow onset, tight binding inhibitor of PfADA"}, {"measurement": "inhibition of PfADA (in words)", "setting": "[1]; listed as 5′-methylthiocoformycin", "value": "pM inhibitor of PfADA"}, {"measurement": "Ki", "setting": "[1]; slow onset equilibrium dissociation constant, read-out: PfADA Ki^a", "value": "0.43 ± 0.12", "unit": "nM"}, {"measurement": "Ki", "setting": "[2]; [4]", "value": "> 10000", "unit": "nM"}, {"measurement": "inhibition of bovine ADA (in words)", "setting": "[2]; mammalian ADAs", "value": "little effect on mammalian ADAs"}, {"measurement": "Ki", "setting": "[3]; [4]", "value": "> 10000", "unit": "nM"}, {"measurement": "inhibition of human ADA (in words)", "setting": "[3]; mammalian ADAs", "value": "little effect on mammalian ADAs"}]}]}
